{"source": "patent US12403412B2", "about": "“Metal-organic frameworks for the removal of uremic toxins” (Northwestern University, priority 2018, dated 2025)", "type_in_all_cases": "binding", "key": {"[1]": {"test": "Adsorption isotherm of p-cresyl sulfate on NU-1000 and HSA at 310 K (Freundlich)"}, "[2]": {"test": "Isothermal titration calorimetry (ITC): p-CS adsorption", "settings": "Tris-HCl buffer pH 7.4", "description": "(§1) Preliminary ITC experiments investigated the energetics of p-CS and IS adsorbing onto NU-1000 in Tris-HCl buffer at pH 7.4 (FIG. 16 panels (a)-(d), Table 5, and Table 6). […] Fitting the ITC thermograms using a single site adsorption model yielded the lowest errors (<10%) in all experiments.\n(§2) ITC experiments were performed using a VP-ITC titration microcalorimeter (MicroCal Inc.). […] Solutions of p-CS and IS were filtrated off through a syringe filter (PVDF membrane, 0.45 μm, Satorious Minisart Syringe Filter). All samples were degassed properly on a vacuum pump for 20 mins. […] All titrations were carried out at pH 7.4±0.1 in aqueous buffer solutions under the following measurement conditions: reference power (10 μcal s^−1), initial injection delay (600 s), stirring speed (307 rpm), feedback mode gain (high feedback), spacing between injections (500 s), and filter period (10 s). All other conditions are described in Table 6. All titration experiments were performed in triplicate. A thermodynamic profile of each binding interaction was determined by fitting the data with a single-site interaction model. Heats of dilution for uremic toxins were determined in control experiments, and these were subtracted from the integrated data before curve fitting.\n(§3) ITC has been widely used for studying enzymatic systems but it should also be applicable to MOF systems. In this section, the theory of ITC and the mathematical formulation behind it is briefly explained. Following the framework described in Lawrence Indyk et al., the binding of a single ligand, L (sulfate anion in this study), with a MOF receptor, M (MOF crystals in this study), can be considered (Indyk, L. et al., Methods Enzymol. 1998, 295, 350-364.): [M]+n[L] ? n[ML] (Eq. 9) [M]+[L] ? [ML] (Eq. 10) where ML is the ligand-bound MOF complex. The binding stoichiometry is given by n. Only single-site independent binding and one-to-one binding were considered in this case (n=1, Eq. 10). MOF crystals, especially NU-1000, should have several binding sites, but each site is thermodynamically identical and has similar affinity for sulfate ions. The equilibrium association constant, Ka, is defined as\n(§4) [formula] where V is the volume of the calorimetric cell, ΔH is the enthalpy of binding for formation of [ML]. Substituting Eqs. 11-13 into Eq. 14 allows ΔQ to be written explicitly in terms of Ka, ΔH, [MT], and [LT]. The integrated heats from each injection can be fit to a model as a function of molar ratio to determine heat from the standard parameters (Ka, ΔH, and n) in a single experiment. The value of ΔG is determined from the standard thermodynamic definition, ΔG=−RT ln(Ka), and the entropy of adsorption, ΔS, is calculated from ΔG=ΔH−TΔS."}, "[3]": {"test": "Isothermal titration calorimetry (ITC): IS adsorption", "settings": "Tris-HCl buffer pH 7.4", "description": "as §1, §2, §3, §4"}}}
{"substance": "HSA: transport human serum albumin (HSA) in human blood, binds protein-bound uremic toxins", "values": [{"measurement": "Percentage of adsorbed p-cresyl sulfate on HSA (average)", "setting": "[1]; initial concentration (Ci) 0.01 to 0.1 mM, 50 mg HSA in 1.0 mL 0.9% NaCl", "value": "82±5", "unit": "%"}, {"measurement": "KF (Freundlich adsorption constant)", "setting": "[1]; p-cresyl sulfate", "value": "2.87 (mg g^−1)(L mg^−1)l/n"}, {"measurement": "l/n (degree of nonlinearity and adsorption intensity)", "setting": "[1]; p-cresyl sulfate", "value": 0.97}, {"measurement": "Ka", "setting": "[2]; 25 °C", "value": "0.69±0.07 10^4, M^−1"}, {"measurement": "TΔS", "setting": "[2]; 25 °C", "value": "-3.51 ± 0.879", "unit": "kJ/mol"}, {"measurement": "ΔG", "setting": "[2]; 25 °C", "value": "-21.9 ± 0.25", "unit": "kJ/mol"}, {"measurement": "ΔH", "setting": "[2]; 25 °C", "value": "-25.4 ± 0.628", "unit": "kJ/mol"}, {"measurement": "Ka", "setting": "[2]; 30 °C", "value": "0.52 ± 0.01 10^4, M^−1"}, {"measurement": "TΔS", "setting": "[2]; 30 °C", "value": "-2.55 ± 1.46", "unit": "kJ/mol"}, {"measurement": "ΔG", "setting": "[2]; 30 °C", "value": "-21.6 ± 0.042", "unit": "kJ/mol"}, {"measurement": "ΔH", "setting": "[2]; 30 °C", "value": "-24.1 ± 1.42", "unit": "kJ/mol"}, {"measurement": "Ka", "setting": "[2]; 37 °C", "value": "0.40 ± 0.01 10^4, M^−1"}, {"measurement": "TΔS", "setting": "[2]; 37 °C", "value": "-1.26 ± 1.63", "unit": "kJ/mol"}, {"measurement": "ΔG", "setting": "[2]; 37 °C", "value": "-21.2 ± 0.21", "unit": "kJ/mol"}, {"measurement": "ΔH", "setting": "[2]; 37 °C", "value": "-22.5 ± 1.42", "unit": "kJ/mol"}, {"measurement": "Ka", "setting": "[3]; 25 °C", "value": "6.16 ± 0.01 10^4, M^−1"}, {"measurement": "TΔS", "setting": "[3]; 25 °C", "value": "-10.1 ± 0.21", "unit": "kJ/mol"}, {"measurement": "ΔG", "setting": "[3]; 25 °C", "value": "-27.4 ± 0.042", "unit": "kJ/mol"}, {"measurement": "ΔH", "setting": "[3]; 25 °C", "value": "-37.5 ± 0.21", "unit": "kJ/mol"}, {"measurement": "Ka", "setting": "[3]; 30 °C", "value": "5.53 ± 0.17 10^4, M^−1"}, {"measurement": "TΔS", "setting": "[3]; 30 °C", "value": "-9.62 ± 1.67", "unit": "kJ/mol"}, {"measurement": "ΔG", "setting": "[3]; 30 °C", "value": "-27.5 ± 0.084", "unit": "kJ/mol"}, {"measurement": "ΔH", "setting": "[3]; 30 °C", "value": "-37.2 ± 1.76", "unit": "kJ/mol"}, {"measurement": "Ka", "setting": "[3]; 37 °C", "value": "3.91 ± 0.05 10^4, M^−1"}, {"measurement": "TΔS", "setting": "[3]; 37 °C", "value": "-11.3 ± 0.25", "unit": "kJ/mol"}, {"measurement": "ΔG", "setting": "[3]; 37 °C", "value": "-27.3 ± 0.042", "unit": "kJ/mol"}, {"measurement": "ΔH", "setting": "[3]; 37 °C", "value": "-38.6 ± 0.25", "unit": "kJ/mol"}]}
